The chains behind the UniProt entries cited, without tags or fusion partners. A line that says so, or that is headed by a name, gives the form on record, which may keep a tag or linker. Residues count along the entry.
UniProt P42336, 21-1068 with tags or gaps limits assumed: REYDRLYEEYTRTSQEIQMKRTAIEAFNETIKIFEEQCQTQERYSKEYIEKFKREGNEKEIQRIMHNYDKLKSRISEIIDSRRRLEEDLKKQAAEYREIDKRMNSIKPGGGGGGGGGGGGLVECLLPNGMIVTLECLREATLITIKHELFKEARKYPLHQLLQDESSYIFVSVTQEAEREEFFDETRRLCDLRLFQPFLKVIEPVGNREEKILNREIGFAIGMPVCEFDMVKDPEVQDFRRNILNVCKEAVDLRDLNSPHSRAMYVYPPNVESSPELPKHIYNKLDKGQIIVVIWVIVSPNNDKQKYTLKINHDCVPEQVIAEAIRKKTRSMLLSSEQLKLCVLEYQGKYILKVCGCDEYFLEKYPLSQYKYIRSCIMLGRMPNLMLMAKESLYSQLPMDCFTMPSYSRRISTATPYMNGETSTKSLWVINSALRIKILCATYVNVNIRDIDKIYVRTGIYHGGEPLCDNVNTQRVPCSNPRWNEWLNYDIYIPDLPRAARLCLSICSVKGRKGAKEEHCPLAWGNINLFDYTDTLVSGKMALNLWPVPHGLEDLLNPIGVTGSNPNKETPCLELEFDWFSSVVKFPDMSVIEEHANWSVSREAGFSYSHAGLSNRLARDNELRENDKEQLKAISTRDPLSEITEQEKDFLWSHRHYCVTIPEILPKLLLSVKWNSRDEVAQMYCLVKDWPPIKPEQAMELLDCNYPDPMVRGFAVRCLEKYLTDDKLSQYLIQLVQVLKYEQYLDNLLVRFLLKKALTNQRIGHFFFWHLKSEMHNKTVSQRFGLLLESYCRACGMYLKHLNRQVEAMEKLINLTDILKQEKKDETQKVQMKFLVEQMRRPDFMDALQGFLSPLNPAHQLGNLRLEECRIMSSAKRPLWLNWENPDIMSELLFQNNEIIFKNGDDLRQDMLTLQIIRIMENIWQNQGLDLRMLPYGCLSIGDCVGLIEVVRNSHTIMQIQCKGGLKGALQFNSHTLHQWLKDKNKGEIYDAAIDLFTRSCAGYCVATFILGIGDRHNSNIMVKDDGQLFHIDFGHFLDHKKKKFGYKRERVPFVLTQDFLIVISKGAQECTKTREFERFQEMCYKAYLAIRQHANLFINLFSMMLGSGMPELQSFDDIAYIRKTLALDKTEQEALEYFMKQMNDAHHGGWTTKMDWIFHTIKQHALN
UniProt O00329, 2-1044 with tags or gaps limits assumed: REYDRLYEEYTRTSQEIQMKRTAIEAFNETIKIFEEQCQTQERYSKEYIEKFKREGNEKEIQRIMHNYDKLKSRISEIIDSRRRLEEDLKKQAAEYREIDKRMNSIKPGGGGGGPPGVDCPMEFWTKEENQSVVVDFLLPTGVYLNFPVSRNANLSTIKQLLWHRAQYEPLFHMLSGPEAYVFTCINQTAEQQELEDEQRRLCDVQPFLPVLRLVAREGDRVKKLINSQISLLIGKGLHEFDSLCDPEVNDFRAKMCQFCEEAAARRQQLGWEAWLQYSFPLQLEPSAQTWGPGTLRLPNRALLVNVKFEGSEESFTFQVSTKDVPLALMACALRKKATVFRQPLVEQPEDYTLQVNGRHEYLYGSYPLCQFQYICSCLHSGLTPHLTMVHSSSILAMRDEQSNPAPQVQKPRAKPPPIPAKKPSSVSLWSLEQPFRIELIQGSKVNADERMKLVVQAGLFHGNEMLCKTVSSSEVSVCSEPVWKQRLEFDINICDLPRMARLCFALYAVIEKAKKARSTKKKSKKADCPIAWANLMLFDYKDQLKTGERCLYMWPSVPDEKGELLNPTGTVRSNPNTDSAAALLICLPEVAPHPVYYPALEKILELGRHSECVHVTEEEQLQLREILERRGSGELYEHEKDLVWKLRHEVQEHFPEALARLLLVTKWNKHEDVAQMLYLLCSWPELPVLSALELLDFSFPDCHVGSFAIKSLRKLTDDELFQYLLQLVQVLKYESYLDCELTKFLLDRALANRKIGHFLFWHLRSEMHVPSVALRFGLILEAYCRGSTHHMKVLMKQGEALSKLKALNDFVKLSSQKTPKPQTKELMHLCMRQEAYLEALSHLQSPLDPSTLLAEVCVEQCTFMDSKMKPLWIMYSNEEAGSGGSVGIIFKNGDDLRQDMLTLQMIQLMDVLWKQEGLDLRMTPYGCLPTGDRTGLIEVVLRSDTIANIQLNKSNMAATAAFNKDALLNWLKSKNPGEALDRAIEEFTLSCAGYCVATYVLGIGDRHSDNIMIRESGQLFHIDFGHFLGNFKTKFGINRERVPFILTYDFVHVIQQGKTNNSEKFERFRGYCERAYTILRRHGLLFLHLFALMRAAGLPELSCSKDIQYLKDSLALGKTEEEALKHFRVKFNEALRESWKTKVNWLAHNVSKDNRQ
UniProt P42345, 1360-2549 limits assumed: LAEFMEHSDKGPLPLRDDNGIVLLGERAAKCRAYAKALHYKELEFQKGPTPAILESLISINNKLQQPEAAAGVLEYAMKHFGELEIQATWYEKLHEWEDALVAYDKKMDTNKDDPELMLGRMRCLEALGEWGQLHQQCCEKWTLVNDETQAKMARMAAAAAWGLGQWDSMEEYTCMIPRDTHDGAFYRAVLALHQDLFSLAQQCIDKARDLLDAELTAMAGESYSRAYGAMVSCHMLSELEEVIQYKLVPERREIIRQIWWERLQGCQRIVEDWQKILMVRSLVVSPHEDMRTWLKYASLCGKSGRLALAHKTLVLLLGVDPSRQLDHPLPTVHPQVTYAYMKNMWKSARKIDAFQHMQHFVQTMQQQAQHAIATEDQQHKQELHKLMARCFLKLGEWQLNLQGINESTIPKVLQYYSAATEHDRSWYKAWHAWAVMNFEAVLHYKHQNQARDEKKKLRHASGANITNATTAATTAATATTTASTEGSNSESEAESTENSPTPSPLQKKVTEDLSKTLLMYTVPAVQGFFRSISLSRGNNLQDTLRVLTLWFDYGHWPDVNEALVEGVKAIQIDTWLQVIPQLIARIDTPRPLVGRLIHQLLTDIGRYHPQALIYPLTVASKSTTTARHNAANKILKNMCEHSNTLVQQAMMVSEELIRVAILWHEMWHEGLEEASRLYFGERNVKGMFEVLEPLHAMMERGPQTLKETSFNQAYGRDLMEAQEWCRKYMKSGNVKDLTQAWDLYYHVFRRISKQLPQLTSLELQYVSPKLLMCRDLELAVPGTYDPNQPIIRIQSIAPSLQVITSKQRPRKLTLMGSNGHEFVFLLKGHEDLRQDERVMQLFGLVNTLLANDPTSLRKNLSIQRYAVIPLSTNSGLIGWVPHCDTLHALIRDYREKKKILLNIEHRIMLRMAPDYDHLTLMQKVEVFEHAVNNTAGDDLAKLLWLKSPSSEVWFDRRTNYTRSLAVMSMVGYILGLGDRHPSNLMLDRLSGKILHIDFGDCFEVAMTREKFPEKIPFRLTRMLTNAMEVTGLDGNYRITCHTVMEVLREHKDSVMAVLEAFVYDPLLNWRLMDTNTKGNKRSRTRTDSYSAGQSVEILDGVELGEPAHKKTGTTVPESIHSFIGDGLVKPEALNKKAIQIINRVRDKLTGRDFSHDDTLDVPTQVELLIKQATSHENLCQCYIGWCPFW
UniProt P42338, 2-1070 with tags or gaps limits assumed: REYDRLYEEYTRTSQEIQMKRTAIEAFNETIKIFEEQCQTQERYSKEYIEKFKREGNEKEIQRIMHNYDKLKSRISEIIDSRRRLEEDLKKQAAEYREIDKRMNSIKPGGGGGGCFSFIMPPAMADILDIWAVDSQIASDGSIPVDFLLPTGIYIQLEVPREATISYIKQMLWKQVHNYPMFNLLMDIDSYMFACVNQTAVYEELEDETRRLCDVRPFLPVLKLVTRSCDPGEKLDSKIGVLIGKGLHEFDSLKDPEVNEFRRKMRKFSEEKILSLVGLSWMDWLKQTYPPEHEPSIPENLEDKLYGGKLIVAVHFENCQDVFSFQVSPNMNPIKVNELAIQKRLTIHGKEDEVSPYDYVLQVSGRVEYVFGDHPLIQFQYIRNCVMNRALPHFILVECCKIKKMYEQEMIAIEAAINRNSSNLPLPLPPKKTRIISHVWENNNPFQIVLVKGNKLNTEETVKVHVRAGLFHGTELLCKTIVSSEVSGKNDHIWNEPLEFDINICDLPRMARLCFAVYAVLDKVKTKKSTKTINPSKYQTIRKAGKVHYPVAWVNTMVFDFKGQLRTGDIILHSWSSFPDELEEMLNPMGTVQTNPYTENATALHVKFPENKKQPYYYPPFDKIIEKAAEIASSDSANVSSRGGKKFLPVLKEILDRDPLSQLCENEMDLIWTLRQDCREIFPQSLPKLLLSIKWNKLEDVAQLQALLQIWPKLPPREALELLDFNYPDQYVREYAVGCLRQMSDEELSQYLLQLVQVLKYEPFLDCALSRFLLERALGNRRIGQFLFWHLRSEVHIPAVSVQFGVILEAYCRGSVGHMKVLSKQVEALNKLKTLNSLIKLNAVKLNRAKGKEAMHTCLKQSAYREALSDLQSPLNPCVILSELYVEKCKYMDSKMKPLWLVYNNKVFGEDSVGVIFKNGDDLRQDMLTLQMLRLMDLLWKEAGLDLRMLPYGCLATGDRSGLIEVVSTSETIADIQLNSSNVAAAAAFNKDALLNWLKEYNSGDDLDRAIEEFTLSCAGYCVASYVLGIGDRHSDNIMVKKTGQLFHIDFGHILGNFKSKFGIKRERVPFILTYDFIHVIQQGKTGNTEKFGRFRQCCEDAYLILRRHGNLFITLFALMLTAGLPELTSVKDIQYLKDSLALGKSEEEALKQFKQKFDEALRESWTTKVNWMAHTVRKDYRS

According to patent publication US20140005163A1 (NOVARTIS AG, priority 2010, published 2014):

Legend:
[1] = system: PKB Ser473 phosphorylation in Rat1-myr-HA-p110 alpha cells; assay: Reverse protein array assay, PKB Ser473 phosphorylation in Rat1-myr-p110 alpha cells; details: read-out: p-PKB IC50, pAkt Ser473, 30 minutes compound incubation
PI3K alpha = PI3K alpha (Homo sapiens, UniProt P42336); assay: PI3K alpha kinase assay (Kinase-Glo luminescence); details: read-out: PI3K alpha IC50
PI3K delta = PI3K delta (Homo sapiens, UniProt O00329); assay: PI3K delta kinase assay (Kinase-Glo luminescence); details: read-out: PI3K delta IC50
[2] = system: PKB Ser473 phosphorylation in Rat1-myr-HA-p110 beta cells; assay: Reverse protein array assay, PKB Ser473 phosphorylation in Rat1-myr-p110 beta cells; type: cell-based; details: read-out: p-PKB IC50, pAkt Ser473, 30 minutes incubation
mTOR = mTOR (Homo sapiens, UniProt P42345); assay: Biochemical assay for m-TOR by TR-FRET; details: read-out: mTOR IC50, 8 μM ATP, 400 nM GFP-4EBP1, 0.5 nM mTOR
PI3K beta = PI3K beta (Homo sapiens, UniProt P42338); assay: PI3K beta kinase assay (Kinase-Glo luminescence); details: read-out: PI3K beta IC50
[3] = system: PKB Ser473 phosphorylation in Rat1-myr-HA-p110 delta cells; assay: Reverse protein array assay, PKB Ser473 phosphorylation in Rat1-myr-p110 delta cells; details: read-out: p-PKB IC50
[4] = system: S6 Ribosomal Protein phosphorylation Ser235/236 in TSC1 null mouse embryo fibroblast (MEF) cells; assay: Reverse protein array assay, S6 Ribosomal Protein phosphorylation Ser235/236 in TSC1 null MEF cells; details: read-out: p-S6 IC50, pS6 ribosomal protein Ser235/236, 60 minutes incubation
CaCo2 = assay: Cellular CaCo2 permeability assay from apical to basal (A-B)

| IC50 [2] [nM] | Structure (SMILES) | IC50 [1] [nM] | IC50 (PI3K alpha) [nM] | IC50 (PI3K delta) [nM] | IC50 (mTOR) [nM] | IC50 (PI3K beta) [nM] | IC50 [3] [nM] | solubility (Solubility at pH 6.8) [µg/mL] | IC50 [4] [nM] | Pe A-B (permeability) (CaCo2) |
| --- | --- | --- | --- | --- | --- | --- | --- | --- | --- | --- |
| 9 | COc1ncc(-c2ccc3ncc4c(c3c2)n(-c2cn(C)nc2C)c(=O)n4C)cc1OC(C)C | < 5 | 4 | < 3 | < 3 | 4 | 8 | 4 (≈ 8.72 µM) | 1 |  |
|  | CCn1cc(-n2c(=O)n(C)c3cnc4ccc(-c5cnc(C)c(OC(C)C)c5)cc4c32)c(C)n1 | < 5 | 4 | 5 | 19 | 30 | 16 | 246 (≈ 539 µM) | 5 | 26.4 10^−6 cm/s |

Values after ≈ are worked out from the molar mass of the structure shown.
